Test results taken from patent US20250130239A1, “PROTEIN DEGRADER” (University of Dundee, priority 2021, published 2025).

Protein sequences, listed by entry. Tags and fused reporters are not part of them. Lines headed by an entry give the natural chain unless they say otherwise; changes in a name come on top.
UniProt P40337, whole entry: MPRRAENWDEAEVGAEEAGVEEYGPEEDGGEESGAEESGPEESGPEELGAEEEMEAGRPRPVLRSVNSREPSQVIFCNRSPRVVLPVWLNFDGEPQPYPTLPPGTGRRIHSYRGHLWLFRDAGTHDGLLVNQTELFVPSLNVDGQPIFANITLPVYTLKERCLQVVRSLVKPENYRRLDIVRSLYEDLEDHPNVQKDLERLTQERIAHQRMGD

Target: T1, BromoTag-Brd2 (Homo sapiens, UniProt O60885+P40337, L387A)
T1 construct: comprising residues 368-440 of human Brd4; Brd2 (endogenous protein, fusion partner in the same polypeptide); eGFP-P2A (upstream marker in the knock-in cassette) (N, cleaved yes); expressed in transfected cells; host or cells: HEK293, heterozygous CRISPR knock-in at the endogenous BRD2 locus
Assay: Dose-response degradation assay (western blot, 6 h) in heterozygous BromoTag-Brd2 HEK293 cells
Type: cell-based
Protocol: Dose-response Degradation Assays. All dose-response degradation assays were performed on the genotype verified heterozygous BromoTag-Brd2 HEK293 cell line. Heterozygous BromoTag-Brd2 HEK293 cells were plated at a density of 5×10^5 cells per well of a six healthy plate a day before initiation of the titration experiment. PROTAC compounds were dissolved in DMSO at a concentration of 10 mM, from these stock concentrations, PROTAC compounds were diluted to appropriate concentrations using DMSO in the range of 10 μM-1 nM. […] Control compounds such as MZ1, cis-MZ1 were similarly dissolved in DMSO to the appropriate concentration. […] Cells were washed twice with PBS before being harvested.
Western Blotting. […] The membranes were blocked for 1 h prior to incubation with the primary antibodies using 5% Milk TBST. […] Following overnight incubation with the primary antibodies at 4° C., the membranes were incubated with secondary antibodies (Anti-rabbit, Abcam AB216773, 1:5000 or anti-mouse, Abcam AB216774, 1:5000) and hFAB™ Rhodamine Anti-Tubulin Antibody (Biorad, 12004165, 1:10000) for one h and then imaged with a Bio-Rad imager (LI-COR Biosciences). All western blots were analysed for band intensities using Image Lab from Bio-Rad (LI-COR, Biosciences). The data extracted from these blots were then plotted and analysed using Prism (v. 8.2.0, GraphPad).

[1] = HEK293, Ab: BromoTag-Brd2, single stereoisomers, 6 h

Compound | Dmax [1] | Dmax (HEK293, Ab: Brd2, second-generation B&H-PROTACs, 6 h) | Dmax (HEK293, BromoTag'ed BRD2 (P25440), N-term tag, Table 6)
CC[C@@H](C(=O)NCCOCCOCCOCC(=O)N[C@H](C(=O)N1C[C@H](O)C[C@H]1C(=O)NCc1ccc(-c2scnc2C)cc1)C(C)(C)C)[C@@H]1N=C(c2ccc(Cl)cc2)c2c(sc(C)c2C)-n2c(C)nnc21 (single isomer, unassigned) [AGB3 (48)] | 96% | – | –
CC[C@@H](C(=O)OCCOCCOCCOCC(=O)N[C@H](C(=O)N1C[C@H](O)C[C@H]1C(=O)NCc1ccc(-c2scnc2C)cc1)C(C)(C)C)[C@@H]1N=C(c2ccc(Cl)cc2)c2c(sc(C)c2C)-n2c(C)nnc21 (relative stereo) [ET-OMZ1 (23), (S)-13-((2S,4R)-4-hydroxy-2-((4-(4-methylthiazol-5-yl)benzyl)carbamoyl)pyrrolidine-1-carbonyl)-14,14-dimethyl-11-oxo-3,6,9-trioxa-12-azapentadecyl (R*)-2-((S*)-4-(4-chlorophenyl)-2,3,9-trimethyl-6H-thieno[3,2-f][1,2,4]triazolo[4,3-a][1,4]diazepin-6-yl)butanoate] | – | 96% | –
CC[C@@H](C(=O)OCCOCCOCCOCC(=O)N[C@H](C(=O)N1C[C@H](O)C[C@H]1C(=O)NCc1ccc(-c2scnc2C)cc1)C(C)(C)C)[C@@H]1N=C(c2ccc(Cl)cc2)c2c(sc(C)c2C)-n2c(C)nnc21 (single isomer, unassigned) [AGB1 (46)] | 97% | – | 97%
